Screening data as filed in PubChem.
Rango-impB inh = Rango-importin beta binding inhibition | Q14974 | Potency, µM (highest dose often 92.2 µM), for the others: top-dose inhibition of complex formation | AID 540263 | Rango CFP/YFP FRET sensor + importin beta, 45 min | 340,000 compounds, 0.031% hits; calls by dose curve;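 also: 0% = DMSO wells and 100% = buffer wells lacking importin beta; nearly all actives have a fitted effect of over 15% in size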
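FRET biosensor Rango (snurportin 1 IBB between N-terminal EYFP and C-terminal Cerulean), 50 nM in PBS/1 mM DTT/0.02% Tween-20/0.1% BSA, preincubated 5 min RT with compound; 0.125 microM importin beta added, 45 min RT, CFP/YFP FRET ratio read.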
EPAC2 agonist = agonists of human EPAC2 (RAPGEF4) | Q8WZA2 | EPAC2 activation, biochemical qHTS; response scale: 100% = 6.5 mM cAMP response | Potency, µM (highest dose often 154 µM), inactives show at the highest dose activation, actives largely listed as activators | 360,000 compounds, 0.079% hits | AID 720711; also: nearly all actives have a fitted effect of over 50% in size
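Compounds were titrated in qHTS against a Rap1B-BODIPY-GDP (250 nM) complex with EPAC2 (100 nM) and GDP (50 uM). BODIPY-GDP release tracked at 480/540 nm over 30 min at room temperature, normalized to 6.5 mM cAMP.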
EPAC2 antag = EPAC2 (human) antagonism; 360,000 compounds, 0.18% hits; EPAC2 GEF exchange of Rap1B-BODIPY-GDP, fluorescence; Potency, µM (series often up to 114 µM), for inactives: at the highest dose activity, negative = inhibition, usual class: inhibitors; AID 720708; Q8WZA2; also: % is scaled to controls: 0 for no effect and ±100 for the full control effect; nearly all actives have a fitted effect of over 45% in size
EPAC1 antagonist = blocks human EPAC1 exchange factor; O95398; EPAC1 GEF assay, Rap1b-BODIPY-GDP exchange fluorescence; Potency, µM (series often up to 115 µM), without a hit: at the highest dose activity change, negative = inhibition, actives largely listed as inhibitors; 360,000 compounds, 0.14% hits;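 also: plate controls were vehicle for no effect and positive control for full effect; nearly all actives have a fitted effect of over 50% in size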
EPAC1 ag = EPAC1 (human) agonism; O95398; EPAC1 agonist qHTS, biochemical assay; response scale: 100% = response to 6.5 mM cAMP; Potency, µM (doses to about 154 µM), for the others: at the top dose activation, usual class: activators; 360,000 compounds, 0.073% hits; also: nearly all actives have a fitted effect of over 60% in size
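Multi-concentration qHTS readout: loss of Rap1B-bound BODIPY-GDP fluorescence driven by 100 nM EPAC1 with excess GDP (50 uM), monitored kinetically at room temperature; agonist response expressed relative to 6.5 mM cAMP.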
Rango dissoc inh = prevents RanGTP from dissociating the Rango-importin beta complex | O95149+P62826 | Biochemical FRET Rango-importin beta, RanGTP-induced dissociation | Potency, µM (highest dose often 46.1 µM), for inactives: top-dose activity change, negative = inhibition | 340,000 compounds, 0.071% hits; calls by dose curve; also: % of control where 0% means no effect; nearly all actives have a fitted effect of over 45% in size
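Compounds sat 5 min at room temperature with 0.1 uM Rango biosensor plus 0.25 uM importin beta, then FRET pre-read. RanGTP-RCC1 (0.6 uM Ran, 2mM GTP, 0.2 uM RCC1) added for 45 min, and the CFP/YFP post-read measured blocked complex dissociation.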
Starred values were filed as active, the others as inactive; ? = inconclusive; · = not tested or not shown. This is a sample that favours compounds with a hit; in the whole collection about 0.43% have one here. Unless noted, calls follow the shape of the dose curve; as a rule, active = well fitted curve in the direction sought with a large enough effect; inconclusive = small, poorly fitted or top-dose-only effect, or another doubt; inactive = no such curve, though single readings can be large; an effect the other way counts as inactive or inconclusive. Potency is read from the fitted curve at half-maximal effect.

The line under a structure holds: EPAC1 antagonist	EPAC2 antag	EPAC2 agonist	EPAC1 ag	Rango-impB inh	Rango dissoc inh
CO[C@H]1CN(C)C(=O)c2ccc(NC(=O)C3CCC3)cc2OC[C@H](C)N(Cc2ccccn2)C[C@@H]1C
→ 1.8%	-11.8%	7.5%	-0.7%	·	·
Cc1cc2cc(CNS(=O)(=O)c3ccc4ccccc4c3)ccc2n1C
→ -7.8%	0.4%	13.0%	-3.2%	-3.5%	-16.4%
CC(=O)Nc1ccc(S(=O)(=O)NCc2ccc3c(c2)cc(C)n3C)cc1
→ -1.5%	8.8%	13.9%	-7.6%	?	23.1µM*
NC(=S)c1cc2cc(Cl)ccc2oc1=O
→ -11.6%	2.5%	6.3%	0.9%	25.9µM*	10.4%
O=C(c1cc2cc(Cl)ccc2oc1=O)N1CCOCC1
→ 7.9%	10.6%	-2.6%	-3.9%	1.6%	-3.3%
COC(=O)c1ccccc1NC1=C/C(=N\S(=O)(=O)c2ccc(C(=O)O)cc2)c2ccccc2C1=O
→ 39.8µM*	?	12.7%	5.7%	-0.4%	-4.2%
COC(=O)c1ccccc1NC1=C/C(=N\S(=O)(=O)c2cccs2)c2ccccc2C1=O
→ -1.5%	3.5%	7.9%	-1.4%	-4.5%	-10.0%
CCCc1nc2cc(C)c(Br)c(C)n2c1Cc1ccccc1OC
→ -5.6%	-5.9%	6.5%	3.4%	·	·
O=C1NC[C@H](CCCCN2C[C@H](Cc3ccc(O)cc3)N(Cc3ccccc3)C(=O)C2=O)N(CCc2ccc(O)cc2)C1=O
→ -21.8%	-0.3%	9.6%	7.1%	·	·
O=C(Cc1ccc(Cl)cc1)Nc1cccc(C(=O)Nc2ccccc2C(=O)O)c1
→ 100µM*	-1.4%	2.7%	-11.0%	0.4%	-3.6%
O=C(Nc1nc2ccc(Cl)cc2s1)C1CCCO1 (stereo not given)
→ 5.3%	-3.8%	7.94µM*	-5.7%	-6.9%	-21.9%
CS(=O)(=O)c1ccc2nc(NC(=O)C3CCCO3)sc2c1 (stereo not given)
→ 3.0%	3.7%	-2.8%	4.6%	-8.0%	23.0%
COCCOC(=O)N1CCCCC1c1cc(C(=O)NCc2ccc(Cl)c(Cl)c2)no1 (stereo not given)
→ -10.2%	-15.8%	15.5%	11.1%	·	·
CN1CCN(C2=Nc3c(Cl)cc(Cl)c4cccc2c34)CC1
→ -23.5%	-23.6%	3.1%	-3.5%	51.7µM*	2.4%
N#Cc1ccc(-c2nc3ccc(Cl)cn3c2Cc2ccccc2)cc1
→ -7.1%	-16.1%	9.7%	-2.7%	·	·
CCCCn1nnnc1C(c1cc2ccccc2o1)N(Cc1ccccc1)Cc1ccccc1 (stereo not given)
→ 1.6%	6.0%	11.2%	11.8%	·	·
CC1CN(C(=O)CCC(=O)NCc2ccccc2)c2ccccc2S1 (stereo not given)
→ 9.7%	50.1µM*	14.2%	-0.2%	-1.2%	8.5%
CC1CN(C(=O)CCC(=O)NCc2ccc(Cl)cc2)c2ccccc2O1 (stereo not given)
→ -11.8%	-15.1%	17.4%	-1.2%	0.6%	-14.7%
COC(=O)C1=CN(c2ccc(N3CCOCC3)cc2)C(N)=C(C#N)C1c1ccc(-c2ccccc2)cc1 (stereo not given)
→ -7.6%	-10.3%	6.9%	1.7%	·	·
O=[N+]([O-])c1ccc(C=NNc2ccc(S(=O)(=O)O)cc2)cc1
→ -13.1%	20µM*	-0.8%	-3.9%	7.1%	-2.6%

Entries listed so far that have a cyano group, in the order listed:
The line under a structure holds: EPAC1 antagonist	EPAC2 antag	EPAC2 agonist	EPAC1 ag	Rango-impB inh	Rango dissoc inh
N#Cc1ccc(-c2nc3ccc(Cl)cn3c2Cc2ccccc2)cc1
→ -7.1%	-16.1%	9.7%	-2.7%	·	·
COC(=O)C1=CN(c2ccc(N3CCOCC3)cc2)C(N)=C(C#N)C1c1ccc(-c2ccccc2)cc1 (stereo not given)
→ -7.6%	-10.3%	6.9%	1.7%	·	·

Arranged by count of non-hydrogen atoms (rising): part of the list above
The line under a structure holds: EPAC1 antagonist	EPAC2 antag	EPAC2 agonist	EPAC1 ag	Rango-impB inh	Rango dissoc inh
COCCOC(=O)N1CCCCC1c1cc(C(=O)NCc2ccc(Cl)c(Cl)c2)no1 (stereo not given)
→ -10.2%	-15.8%	15.5%	11.1%	·	·
COC(=O)c1ccccc1NC1=C/C(=N\S(=O)(=O)c2cccs2)c2ccccc2C1=O
→ -1.5%	3.5%	7.9%	-1.4%	-4.5%	-10.0%
COC(=O)c1ccccc1NC1=C/C(=N\S(=O)(=O)c2ccc(C(=O)O)cc2)c2ccccc2C1=O
→ 39.8µM*	?	12.7%	5.7%	-0.4%	-4.2%

Other results follow:
The line under a structure holds: EPAC1 antagonist	EPAC2 antag	EPAC2 agonist	EPAC1 ag	Rango-impB inh	Rango dissoc inh
O=[N+]([O-])c1ccc(N/N=C/c2c[nH]c3ccccc23)cc1
→ -17.6%	-3.4%	-8.6%	4.1%	20.6µM*	?
O=S(=O)(O)c1ccc(NN=Cc2ccccc2O)cc1
→ -11.3%	22.4µM*	-8.9%	-6.2%	-2.1%	-10.8%
CC(C)(C)c1ccc(CC(=O)N2CCC2(C)C(=O)NCc2cccc3ccccc23)cc1 (stereo not given)
→ -16.6%	-17.7%	1.4%	-17.4%	·	·
Cc1nc2ccccc2c(=O)n1/N=C/c1cc(Br)ccc1O
→ -27.0%	-9.4%	3.5%	0.6%	?	10.3µM*
CCOC1(c2ccccc2)OC(=O)c2ccccc21 (stereo not given)
→ -0.7%	?	11.9%	8.2%	3.2%	-6.3%
CC(C)OC1(c2ccccc2)OC(=O)c2ccccc21 (stereo not given)
→ -15.8%	35.5µM*	-11.0%	-4.0%	-0.6%	-1.4%
OC(c1ccc(-c2ccccc2)cc1)c1ncc(-c2ccc(F)cc2)[nH]1 (stereo not given)
→ -28.4%	-14.5%	3.7%	-5.9%	·	·
COc1ccccc1Cn1c(=O)oc2ccc(C)cc21
→ -13.9%	28.2µM*	6.4%	-7.2%	-1.6%	-1.5%
COc1ccc(C(=O)C(=O)N2CCN(C(=O)OCc3ccccc3)CC2)cc1
→ 0.6%	0.4%	7.5%	8.0%	·	·
N#C/C(=C/c1ccc(O)c(O)c1)c1nc2ccccc2[nH]1
→ 89.1µM*	?	8.5%	-125.2%	?	?
N#C/C(=C\c1cccs1)c1nc2ccccc2[nH]1
→ -13.1%	5.6%	3.6%	9.8%	?	-15.2%
COc1cccc(-c2nnc3sc(-c4ccccc4)nn23)c1
→ -1.1%	8.6%	-7.9%	7.1%	-1.1%	-2.2%
COc1cccc(OC)c1-c1nn2c(-c3cc(-c4ccccc4)n[nH]3)nnc2s1
→ 39.8µM*	11.2µM*	?	?	0.0%	8.6%
CC(C)(C)OC(=O)N1CCc2onc(-c3ccc(-n4cc(C5=CCCCC5)nn4)cc3)c2C1=O
→ 2.1%	-3.0%	-3.7%	-18.2%	·	·
CCc1ccc(/C=C2\Oc3cc(OS(C)(=O)=O)ccc3C2=O)cc1
→ -5.1%	-14.7%	0.1%	10.6%	?	8.2µM*
COc1ccccc1NS(=O)(=O)c1ccc(N/N=C/c2ccccc2OCC(=O)O)c([N+](=O)[O-])c1
→ ?	-11.4%	10.7%	2.7%	-0.8%	15.4%
O=C(O)c1ccccc1NS(=O)(=O)c1ccc(NN=Cc2ccc(F)cc2)c([N+](=O)[O-])c1
→ 50.1µM*	-10.4%	6.1%	3.9%	-0.1%	-1.0%
NS(=O)(=O)c1ccc(N/N=C/c2ccccc2C(=O)O)c([N+](=O)[O-])c1
→ ?	-6.1%	5.8%	4.0%	3.9%	-14.1%
COc1ccc(C=NNc2ccc([N+](=O)[O-])cc2S(=O)(=O)Nc2ccccc2C(=O)O)cc1OC
→ 50.1µM*	-20.4%	-7.8%	-10.2%	?	?
O=C(O)c1ccccc1NS(=O)(=O)c1ccc(NN=Cc2cccc(Cl)c2)c([N+](=O)[O-])c1
→ 50.1µM*	?	-7.6%	-3.2%	1.8%	-1.1%
O=C(O)c1ccccc1NS(=O)(=O)c1ccc(N/N=C/c2ccc(O)c(O)c2)c([N+](=O)[O-])c1
→ 15.8µM*	56.2µM*	-24.5%	-14.5%	-0.8%	13.8%
